The assay concerns the target Human immunodeficiency virus type 1 reverse transcriptase (Human immunodeficiency virus 1) (UniProt Q72547). Kind of assay: Potency index, ratio of IC50 for nevirapine to IC50 for test compound for inhibition of HIV1 reverse transcriptase.

From ChEMBL document CHEMBL3351775, “Design, synthesis and anti-HIV evaluation of novel diarylnicotinamide derivatives (DANAs) targeting the entrance channel of the NNRTI binding pocket through structure-guided molecular hybridization” (Eur J Med Chem, 2014) come the findings set out here.

Regarding `Cc1cc(C)c(Oc2cc(Nc3ccc(C#N)cc3)ncc2C(N)=O)c(C)c1`, the Ratio IC50 worked out at 31.
